# Test results taken from US11760766B2, “Ionic liquids containing quaternary ammonium and phosphonium cations, and their use as environmentally friendly lubricant additives” (UT-Battelle, LLC, priority 2020, dated 2023).
# Test system: Ceriodaphnia dubia
# Assay: 7-day chronic ecotoxicity test, standard EPA protocol
# Conditions: for Effect on Daphnia reproduction, in words: 7-day test, 0.5 ppm additive; for Total reproductive output (number of neonates) in surviving Daphnia / Number of surviving Daphnia: 0.5 ppm additive in 10 ppm PAG; for Number of surviving Daphnia: started with 10 individuals
Substance,"Effect on Daphnia reproduction, in words",Total reproductive output (number of neonates) in surviving Daphnia (Day 1),Number of surviving Daphnia (Day 1),Total reproductive output (number of neonates) in surviving Daphnia (Day 2),Number of surviving Daphnia (Day 2),Total reproductive output (number of neonates) in surviving Daphnia (Day 3),Number of surviving Daphnia (Day 3),Total reproductive output (number of neonates) in surviving Daphnia (Day 4),Number of surviving Daphnia (Day 4),Total reproductive output (number of neonates) in surviving Daphnia (Day 5),Number of surviving Daphnia (Day 5),Total reproductive output (number of neonates) in surviving Daphnia (Day 6),Number of surviving Daphnia (Day 6),Total reproductive output (number of neonates) in surviving Daphnia (Day 7),Number of surviving Daphnia (Day 7),Total reproductive output (number of neonates) in surviving Daphnia (Total over 7 days),"Mortality of Daphnia (within 24 hours, 0.5 ppm)"
zinc dialkyldithiophosphate,no reproduction was observed,0,8,0,0,0,0,0,0,0,0,0,0,0,0,0,100%
Tetraoctylammonium octadecanoate,reduced or halted reproduction,,,,,,,,,,,,,,,,
